{"sequences": {"note": "Protein sequences, listed by entry. Tags and fused reporters are not part of them. Lines headed by an entry give the natural chain unless they say otherwise; changes in a name come on top.", "UniProt P41144": "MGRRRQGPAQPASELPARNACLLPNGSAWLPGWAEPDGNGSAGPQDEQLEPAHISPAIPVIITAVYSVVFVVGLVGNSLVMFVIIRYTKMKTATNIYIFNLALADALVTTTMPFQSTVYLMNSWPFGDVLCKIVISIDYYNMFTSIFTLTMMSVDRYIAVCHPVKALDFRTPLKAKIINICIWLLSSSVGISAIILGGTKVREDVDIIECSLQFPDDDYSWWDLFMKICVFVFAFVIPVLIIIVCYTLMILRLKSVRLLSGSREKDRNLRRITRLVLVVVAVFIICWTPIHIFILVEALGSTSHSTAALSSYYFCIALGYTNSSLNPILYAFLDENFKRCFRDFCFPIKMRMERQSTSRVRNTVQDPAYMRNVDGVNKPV", "UniProt P33535, whole entry, looked up": "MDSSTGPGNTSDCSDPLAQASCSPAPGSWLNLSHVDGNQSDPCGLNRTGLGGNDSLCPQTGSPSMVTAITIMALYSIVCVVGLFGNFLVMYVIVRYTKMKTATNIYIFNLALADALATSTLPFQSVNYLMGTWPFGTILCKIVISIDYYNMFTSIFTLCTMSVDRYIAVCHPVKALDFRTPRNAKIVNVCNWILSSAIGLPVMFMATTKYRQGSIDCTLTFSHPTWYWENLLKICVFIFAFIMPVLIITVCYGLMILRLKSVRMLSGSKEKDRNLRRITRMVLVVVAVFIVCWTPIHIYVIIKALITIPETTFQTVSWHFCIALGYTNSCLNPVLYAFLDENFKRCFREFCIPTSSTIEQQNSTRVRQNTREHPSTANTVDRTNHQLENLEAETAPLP", "UniProt P33533, whole entry, looked up": "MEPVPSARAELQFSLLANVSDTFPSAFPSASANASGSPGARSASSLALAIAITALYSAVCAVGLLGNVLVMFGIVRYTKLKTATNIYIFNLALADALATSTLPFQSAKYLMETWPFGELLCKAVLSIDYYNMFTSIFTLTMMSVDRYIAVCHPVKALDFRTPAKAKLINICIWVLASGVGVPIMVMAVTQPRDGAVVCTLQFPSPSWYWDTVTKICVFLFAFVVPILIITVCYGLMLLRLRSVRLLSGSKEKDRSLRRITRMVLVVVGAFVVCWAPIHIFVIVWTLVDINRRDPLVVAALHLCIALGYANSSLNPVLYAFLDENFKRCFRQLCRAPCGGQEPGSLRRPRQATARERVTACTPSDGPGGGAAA"}, "source": "ChEMBL document CHEMBL1133607", "about": "“Nonpeptide analogues of dynorphin A(1-8): design, synthesis, and pharmacological evaluation of kappa-selective agonists” (J Med Chem, 2000)", "key": {"Mus musculus [1]": {"tested_on": "Mus musculus", "test": "Effective dose at 10 mg/kg of nor-BNI was administered subcutaneously 10 min before agonist were administered in mice to test the antinociceptive activity.", "conditions": "route subcutaneous"}, "Mus musculus [2]": {"tested_on": "Mus musculus", "test": "Effective dose of the compounds at 10 mg/kg of nor-BNI was administered subcutaneously 10 min before agonist were administered in mice for rotarod test.", "conditions": "route subcutaneous"}, "[3]": {"biological_target": "Kappa-type opioid receptor (Cavia porcellus, UniProt P41144)"}, "Mu-type opioid receptor": {"biological_target": "Mu-type opioid receptor (Rattus norvegicus, UniProt P33535)", "test": "Tested for binding affinity by [3H]diprenorphine displacement for Opioid receptor mu 1 was carried on crude membrane fractions obtained from the whole rat brain minus cerebellum.."}, "[4]": {"biological_target": "Delta-type opioid receptor (Rattus norvegicus, UniProt P33533)", "test": "Tested for binding affinity by [3H]diprenorphine displacement for Opioid receptor delta 1 are carried on crude membrane fractions obtained from the whole rat brain minus cerebellum."}}}
{"smiles": "CN(C(=O)Cc1ccc(Cl)c(Cl)c1)C1CCCCC1N1CCCC1", "note": "(stereo not given)", "values": [{"measurement": "ED50", "setting": "Mus musculus [1]", "result": 0.76, "unit": "mg/kg"}, {"measurement": "ED50", "setting": "Mus musculus [2]", "result": 8.2, "unit": "mg/kg"}, {"measurement": "Ki", "setting": "[3]", "result": 5.01, "unit": "nM"}, {"measurement": "Ki", "setting": "Mu-type opioid receptor", "result": 716, "unit": "nM"}, {"measurement": "Ki", "setting": "[4]", "result": 8100, "unit": "nM"}]}
